Test results from patent US11266766B2, “Situ expansion of engineered devices for regeneration” (Massachusetts Institute of Technology, priority 2015, dated 2022).

System: CYP34A expression
Details: animals bearing expanded grafts and injured livers, vs vehicle control

## CO[C@H]1/C=C/O[C@@]2(C)Oc3c(C)c(O)c4c(O)c(c(/C=N/N5CCN(C)CC5)c(O)c4c3C2=O)NC(=O)/C(C)=C\C=C\[C@H](C)[C@H](O)[C@@H](C)[C@@H](O)[C@@H](C)[C@H](OC(C)=O)[C@@H]1C [Rifampin]
  CYP34A expression in grafts: induced
